From US9487483B2, “Complement pathway modulators and uses thereof” (priority 2012, dated 2016) come the findings set out here.

The chains behind the UniProt entries cited, without tags or fusion partners. Residues count along the entry.
UniProt P00746, 26-253: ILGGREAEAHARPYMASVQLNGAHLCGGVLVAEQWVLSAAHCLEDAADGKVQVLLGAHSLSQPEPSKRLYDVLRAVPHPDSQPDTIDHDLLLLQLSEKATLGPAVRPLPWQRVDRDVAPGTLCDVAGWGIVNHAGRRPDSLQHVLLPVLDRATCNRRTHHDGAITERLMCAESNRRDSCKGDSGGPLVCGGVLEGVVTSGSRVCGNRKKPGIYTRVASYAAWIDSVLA

For the first assay, the target named is Recombinant human factor D (Homo sapiens (Human), UniProt P00746). The assay can be described thus: biochemical. In kind it is biochemical. The note with it: Factor D inhibition data using Method 1; substrate Z-Lys-thiobenzyl, fluorescence readout; read-out: IC50.
Usually IC50 stands for the concentration at which inhibition is half-maximal. For `CO[C@@H]1CC[C@@H](NC(=O)[C@@H]2C[C@H]3C[C@H]3N2C(=O)Cn2nc(C(C)=O)c3cc(OCc4ncccn4)ccc32)C1` [Example 99, (1R,3S,5R)-2-{2-[3-Acetyl-5-(pyrimidin-2-ylmethoxy)-indazol-1-yl]-acetyl}-2-aza-bicyclo[3.1.0]hexane-3-carboxylic acid ((1R,3R)-3-methoxy-cyclopentyl)-amide], the IC50 was determined as 432 nM.
On the same count and under the same terms, as for `CO[C@H]1CC[C@H](NC(=O)[C@@H]2C[C@H]3C[C@H]3N2C(=O)Cn2nc(C(C)=O)c3cc(OCc4ncccn4)ccc32)C1` [Example 100, (1R,3S,5R)-2-{2-[3-Acetyl-5-(pyrimidin-2-ylmethoxy)-indazol-1-yl]-acetyl}-2-aza-bicyclo[3.1.0]hexane-3-carboxylic acid ((1S,3S)-3-methoxy-cyclopentyl)-amide], the figure is 942 nM.

The same assay, now with this note: IC50, Factor D inhibition data using Method 1; substrate Z-Lys-thiobenzyl, fluorescence readout.
Regarding `NC(=O)n1cc(NC(=O)N2[C@@H]3C[C@@H]3C[C@H]2C(=O)NC2CCCC(OCC(F)(F)F)C2)c2ccccc21` (single isomer, unassigned) [Example 17], the half-inhibitory concentration (IC50) was 691 nM.
On the same count and under the same terms, as for `NC(=O)n1cc(NC(=O)N2[C@@H]3C[C@@H]3C[C@H]2C(=O)NC2CCCC(OCC(F)(F)F)C2)c2ccccc21` (single isomer, unassigned) [Example 18], the figure is 1700 nM; as for `NC(=O)n1cc(NC(=O)N2[C@@H]3C[C@@H]3C[C@H]2C(=O)NC2CCCC(OCC(F)(F)F)C2)c2ccccc21` (single isomer, unassigned) [Example 19], 790 nM; as for `NC(=O)n1cc(NC(=O)N2[C@@H]3C[C@@H]3C[C@H]2C(=O)NC2CCCC(OCC(F)(F)F)C2)c2ccccc21` (single isomer, unassigned) [Example 20], 1230 nM.
Still for that read-out and setting: as for `CC(=O)c1nn(CC(=O)N2[C@@H]3C[C@@H]3C[C@H]2C(=O)NC2CCCCC2(F)F)c2ccc(OCc3ncccn3)cc12` (single isomer, unassigned) [Example 36], the figure is 734 nM; as for `CC(=O)c1nn(CC(=O)N2[C@@H]3C[C@@H]3C[C@H]2C(=O)NC2CCCCC2(F)F)c2ccc(OCc3ncccn3)cc12` (single isomer, unassigned) [Example 37], 24 nM; as for `CC1CCC(NC(=O)[C@@H]2C[C@H]3C[C@H]3N2C(=O)Cn2nc(C(N)=O)c3ccccc32)C1` (single isomer, unassigned) [Example 77], 254 nM.
Same read-out and setting: for `CC1CCC(NC(=O)[C@@H]2C[C@H]3C[C@H]3N2C(=O)Cn2nc(C(N)=O)c3ccccc32)C1` (single isomer, unassigned) [Example 78] the value was 105 nM; for `CC1CCC(NC(=O)[C@@H]2C[C@H]3C[C@H]3N2C(=O)Cn2nc(C(N)=O)c3ccccc32)C1` (single isomer, unassigned) [Example 79], 2410 nM; for `CC1CCC(NC(=O)[C@@H]2C[C@H]3C[C@H]3N2C(=O)Cn2nc(C(N)=O)c3ccccc32)C1` (single isomer, unassigned) [Example 80], 469 nM.
